# According to publication PMC5303009, “Benzenesulphonamide inhibitors of the cytolytic protein perforin” (Bioorganic & Medicinal Chemistry Letters, 2017):
# How the values were obtained:
# Microsome stability, rat = assay type: in vitro ADME; conditions: sodium salt, rat microsomes, 30 min
# [1] = Toxicity to KHYG-1 NK cells (Trypan blue exclusion); assay type: cell-based; conditions: human, after 24 h, ± SEM
# Experimental: The use of NK cells to secrete perforin rather than employing isolated recombinant protein is a more stringent test of a compound’s ability to block lytic activity, requiring the inhibitor to access the synaptic cleft between effector (NK) and target cells where perforin is released. In this assay, inhibitor is co-incubated with KHYG-1 NK cells in medium for 30 min at room temperature, ^51Cr-labelled target cells added and cell lysis evaluated after 4 h incubation at 37 °C by measuring ^51Cr release.
# The toxicity assay was carried out in exactly the same manner as the killing assay above, but instead of adding the labelled K562 target cells, 100 μL of RPMI 0.1% BSA was added. Cells were incubated for 4 h at 37 °C and then washed ×3 in RPMI + 0.1% BSA. […] Trypan blue was added to each well. Viable (clear) cells and total (clear + blue) cells were counted, and the percentage of viable cells was calculated compared to DMSO treated cell control (% viability).
structure (smiles),measurement,setting,value
CN1Cc2cc(-c3ccc(-c4cncc(NS(=O)(=O)c5ccc(F)cc5F)c4)s3)ccc2C1=O [Compound 5],"Microsome stability (% parent remaining), Rat","Microsome stability, rat",99%
same,"viability at 24 h, 20 µM",[1],> 90%
